Here are results for 1 substance from US7018806B2, “Method for identifying endocrine disruptors and kit for carrying out the same” (priority 2001, dated 2006).

Chains of the proteins cited; added tags and fusions are not shown. Lines headed by an entry give the natural chain unless they say otherwise; changes in a name come on top.
UniProt P11511: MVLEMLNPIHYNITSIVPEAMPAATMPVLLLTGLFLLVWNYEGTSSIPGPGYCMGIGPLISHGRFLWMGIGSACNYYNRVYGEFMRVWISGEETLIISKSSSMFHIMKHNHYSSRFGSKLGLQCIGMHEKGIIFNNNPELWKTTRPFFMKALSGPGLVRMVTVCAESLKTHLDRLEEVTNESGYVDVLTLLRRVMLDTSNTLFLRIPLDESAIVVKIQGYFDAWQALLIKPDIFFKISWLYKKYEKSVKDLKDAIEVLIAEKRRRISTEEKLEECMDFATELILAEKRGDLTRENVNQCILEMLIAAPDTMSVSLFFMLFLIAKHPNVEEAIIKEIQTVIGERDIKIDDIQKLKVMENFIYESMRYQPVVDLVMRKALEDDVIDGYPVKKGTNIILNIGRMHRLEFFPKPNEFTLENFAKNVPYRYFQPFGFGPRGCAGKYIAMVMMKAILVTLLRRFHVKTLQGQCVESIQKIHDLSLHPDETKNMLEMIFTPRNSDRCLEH

For assay [1], the system named is E2 production in KGN cells. Kind of assay: Estradiol (E2) production in cultured KGN cells (RIA). Type of assay: cell-based, human. The note with it: 20 ng/ml, 7 days. The protocol:
The media was collected and the E2 content in the media was determined by specific RIA (SRL, Inc. Tokyo, Japan).

Assay [2] relates to KGN cells. Kind of assay: Effect on KGN cell growth (cell counting, trypan blue exclusion). Type of assay: cell-based, human. The note with it: less than 50 ng/ml (2 or 20 ng/ml), 7 days. Here is the method:
TBT and TPT were obtained from the Sigma Chemical Co. (St. Louis, Mo.). Further, both compounds were dissolved in ethanol, and the final concentration of ethanol in the cell growth medium was 0.1% (w/v).
More specifically, the cells were plated onto a 24-well plate at 1×10^4 cells/well in DMEM/F-12 supplemented with 10% (v/v) FCS. […] After washing, the cells were trypsinized and then counted using a hemocytometer every 48 h for 7 days. Cell viability was assessed by the trypan blue exclusion method.

The target of assay [3] is T1, aromatase (Homo sapiens, UniProt P11511).
T1 construct: endogenous in cells; host or cells: KGN human ovarian granulosa-like tumor cell line (RIKEN RCB 1154)
Kind of assay: Aromatase activity in KGN cells by [3H]H2O release assay. Type of assay: cell-based. The note with it: 20 ng/ml. Here is the method:
Assaying for inhibition or activation of aromatase activity may be carried out by measuring the amount of [^3H]H2O released upon conversion of [1β-^3H]androstenedione to estrone using a modification of the method of Ackerman et al, J. Clin. Endocrinol. Metab., 53:412–417 (1981), or as described in Example 3 below. Briefly, the cells are plated on a petri dish (Falcon 3001) in culture medium with 10% (v/v) fetal calf serum (FCS). At is confluence, the culture medium is replaced with DMEM/Ham's F-12 containing 5.0–10% (v/v) dextran-coated, charcoal-treated FCS (DCS) (Hyclone, Logan Utah), and incubated for another 12 h in the presence or absence of 10^−5–10^−2 M db-cAMP (Wako Pure Chemical Industries Ltd.) and the test compound. After treatment, the cells are further incubated with 12.5 nM [1β-^3H]androstenedione (NEN Life Science Products, Boston, Mass.; SA, 27.5 Ci/mmol) for 6–12 h. After incubation, the medium (2.0 ml) is transferred to tubes containing 1.0 ml ice-cold 30% (w/v) trichloroacetic acid (TCA), and then centrifuged to remove precipitated protein. The cells are harvested using 0.25% (w/v) trypsin-1.0 mM EDTA to determine the protein concentration. The protocol for the extraction of the medium to measure the amount of [^3H]H2O is performed as described by Tanaka et al, Calcif. Tissue Int., 52:107–109 (1993). Finally, the amount of radioactivity in the [^3H]H2O is corrected by subtracting the blank values from each sample. The cell protein content is determined using a micro bicinichoninic acid kit (Pierce Chemical Co., Rockford, Ill.) after the cells are dissolved in 1.0 N NaOH. The aromatase activity is expressed as picomoles per mg cell protein. As a control, the aromatase activities of human granulosa cells (obtained from in vitro fertilization programs), human fibroblast, and HOS cell (human osteoblast-like cell line) (Tanaka et al, supra) can be measured in the same manner.
More specifically, aromatase activity was determined by measuring [^3H] H2O release upon conversion of [1β-^3H]androstenedione (A) to estrone (E1), as described by Mu et al, Biochem. Biophys. Res. Commun., 271(3):710–713 (2000). [1β-^3H]androstenedione was purchased from Amersham Pharmacia Biotech (Boston, Mass.).
The medium (2.0 ml) was extracted with chloroform, and was then centrifuged. The aqueous supernatant was mixed with 5.0% (w/v) charcoal/0.5% (w/v) dextran, and incubated for 30 min. Thereafter, the mixture was centrifuged and the supernatant was added to 5.0 ml of scintillation fluid and assayed for radioactivity. The amount of radioactivity in [^3H]H2O thus measured was standardized based on the protein concentration, which was determined using a micro BCA kit (Pierece Chemical Co., Rockford, Ill.), and expressed as pmol/mg protein/6 h.

[4] abbreviates: basal or 10^−4 M db-cAMP-stimulated, 7-day period.

For tributyltin [TBT], the “E2 concentration in the medium” value in assay [1] was “significant decrease”. In assay [2], the “effect on KGN cell proliferation” value is “little effect”. For the same substance, in assay [3] (72 h, basal (no db-cAMP)), the “aromatase activity, % of the baseline” value was “about 30%”. Also, in assay [3] (setting [4]), the “time of first significant inhibition of aromatase activity after addition” value was 3 days and the “time of maximal inhibition of aromatase activity” value worked out at 7 days. The “effect on db-cAMP-induced increase in aromatase activity” value in assay [3] (with 10^−4 M db-cAMP) is “suppressed”.
